# Target: T1, human HDAC1 (Homo sapiens, UniProt Q13547)
# The chains behind the UniProt entries cited, without tags or fusion partners.
# UniProt Q13547, whole entry: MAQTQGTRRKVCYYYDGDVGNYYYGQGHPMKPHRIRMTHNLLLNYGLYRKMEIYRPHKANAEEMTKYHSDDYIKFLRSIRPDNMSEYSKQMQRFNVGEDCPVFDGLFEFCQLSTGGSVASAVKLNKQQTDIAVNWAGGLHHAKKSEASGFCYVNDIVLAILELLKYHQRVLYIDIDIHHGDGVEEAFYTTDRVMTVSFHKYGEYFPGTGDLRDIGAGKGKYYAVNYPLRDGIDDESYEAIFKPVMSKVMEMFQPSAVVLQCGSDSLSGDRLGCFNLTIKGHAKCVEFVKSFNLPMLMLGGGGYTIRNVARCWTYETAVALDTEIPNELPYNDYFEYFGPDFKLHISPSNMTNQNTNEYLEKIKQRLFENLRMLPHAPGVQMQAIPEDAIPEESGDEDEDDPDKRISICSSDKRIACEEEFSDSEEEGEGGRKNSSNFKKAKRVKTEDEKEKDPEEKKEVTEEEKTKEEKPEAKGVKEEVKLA
# T1 construct: made in house
# Assay: Inhibition activity test of histone deacetylase 1 (fluorescence, Ac-Lys-Tyr-Lys(Ac)-AMC substrate)
# Assay type: biochemical
# Conditions: mean of 3 experiments
row,IC50,Compound
1,38.2 ± 7.29 nM,CC(C)[C@H](NC(=O)c1nc(-c2nccs2)sc1C1CC1)c1ccc(C(=O)NO)cc1 [Compound H04]
2,14.7 ± 0.67 nM,C[C@H](NC(=O)c1nc(-c2nc3c(s2)CCCC3)sc1C1CC1)c1ccc(C(=O)NO)cc1 [Compound H07]
3,3.57 ± 0.4 nM,COc1ccc(-c2cnc(-c3nc(C(=O)N[C@@H](C)c4ccc(C(=O)NO)cc4)c(C4CC4)s3)s2)cc1 [Compound H10]
4,40.9 ± 0.41 nM,C[C@H](NC(=O)c1nc(-c2nccs2)sc1C1CC1)c1ccc(C(=O)NO)cc1 [Compound H02]
5,2.64 ± 0.02 nM,C[C@H](NC(=O)c1nc(-c2ncc(-c3ccc(F)cc3)s2)sc1C1CC1)c1ccc(C(=O)NO)cc1 [Compound H09]
6,19.9 ± 0.47 nM,Cc1cnc(-c2nc(C(=O)N[C@@H](C)c3ccc(C(=O)NO)cc3)c(C3CC3)s2)s1 [Compound H05]
7,81 ± 15.1 nM,CC(NC(=O)c1nc(-c2nccs2)sc1C1CC1)c1ccc(C(=O)NO)cc1 (stereo not drawn) [Compound H01]
8,16.5 ± 0.5 nM,Cc1csc(-c2nc(C(=O)N[C@@H](C)c3ccc(C(=O)NO)cc3)c(C3CC3)s2)n1 [Compound H06]

# Test system: HDAC
# Assay: not given
# Conditions: read-out: IC50 enzyme activity; WO2012152208, background; cited from earlier work
row,Compound,IC50
1,O=C(CCNC(=O)c1nc(-c2nccs2)sc1C1CC1)NO [bexanostat],< 400 nM

# Reference: patent publication US10766889B2, “Aryl-2,2′-tandem bisthiazole compound and preparation method and use thereof” (SHANGHAI INSTITUTE OF MATERIA MEDICA, CHINESE ACADEMY OF …, priority 2016, dated 2020)
